Test results published in patent publication US20250353898A1, “SERPIN PEPTIDE DERIVATIVES AND METHODS OF USING THE SAME” (priority 2022, published 2025).

By UniProt entry, the sequences of proteins in these tests, tags left out.
UniProt O15393, whole entry: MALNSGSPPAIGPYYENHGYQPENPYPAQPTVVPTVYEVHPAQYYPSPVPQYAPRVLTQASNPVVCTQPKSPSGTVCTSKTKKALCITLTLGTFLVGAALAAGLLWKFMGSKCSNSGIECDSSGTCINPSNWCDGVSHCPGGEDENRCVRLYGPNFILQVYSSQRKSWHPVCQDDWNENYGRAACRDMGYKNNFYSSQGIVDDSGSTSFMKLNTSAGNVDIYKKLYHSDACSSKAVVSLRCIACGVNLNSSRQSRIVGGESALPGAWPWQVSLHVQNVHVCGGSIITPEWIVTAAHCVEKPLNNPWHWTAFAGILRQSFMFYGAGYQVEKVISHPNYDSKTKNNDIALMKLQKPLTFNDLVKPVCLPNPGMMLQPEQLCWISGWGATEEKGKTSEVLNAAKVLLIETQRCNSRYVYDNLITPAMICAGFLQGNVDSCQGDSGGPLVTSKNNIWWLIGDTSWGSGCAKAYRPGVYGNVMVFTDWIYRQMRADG

Target: T1, TMPRSS2 (Homo sapiens, UniProt O15393)
T1 construct: expressed in transfected cells
Experiment: cell-based
Details: overexpressing cell system; read-out: IC50 against TMPRSS2 (converted)

## CCCC[C@H](NC(=O)[C@H](CC(C)C)NC(=O)[C@H](Cc1ccccc1)NC(=O)[C@@H](NC(=O)[C@H](Cc1ccccc1)NC(=O)[C@@H]1CCCN1C(=O)[C@H](CCCCN)NC(=O)[C@H](CC(N)=O)NC(=O)[C@H](Cc1ccccc1)NC(=O)[C@H](CCCCN)NC(=O)[C@@H](NC(C)=O)C(C)C)C(C)C)C(=O)N[C@H](C(=O)N[C@@H](CCC(=O)O)C(=O)N[C@@H](CCC(N)=O)C(=O)N[C@@H](CC(N)=O)C(=O)N[C@H](C(=O)N[C@@H](CCCCN)C(N)=O)[C@@H](C)O)[C@@H](C)CC [SP163M, Ac-VKFNKPFVFL[Nle]IEQNTK-NH2]
  IC50: 534 nM
